US10093646B2, “1-pyridazin-/triazin-3-yl-piper(-azine)/idine/pyrolidine derivatives and compositions thereof for inhibiting the activity of SHP2” (Novartis AG, priority 2014, dated 2018)

Chains of the proteins cited; added tags and fusions are not shown.
UniProt Q06124, whole entry: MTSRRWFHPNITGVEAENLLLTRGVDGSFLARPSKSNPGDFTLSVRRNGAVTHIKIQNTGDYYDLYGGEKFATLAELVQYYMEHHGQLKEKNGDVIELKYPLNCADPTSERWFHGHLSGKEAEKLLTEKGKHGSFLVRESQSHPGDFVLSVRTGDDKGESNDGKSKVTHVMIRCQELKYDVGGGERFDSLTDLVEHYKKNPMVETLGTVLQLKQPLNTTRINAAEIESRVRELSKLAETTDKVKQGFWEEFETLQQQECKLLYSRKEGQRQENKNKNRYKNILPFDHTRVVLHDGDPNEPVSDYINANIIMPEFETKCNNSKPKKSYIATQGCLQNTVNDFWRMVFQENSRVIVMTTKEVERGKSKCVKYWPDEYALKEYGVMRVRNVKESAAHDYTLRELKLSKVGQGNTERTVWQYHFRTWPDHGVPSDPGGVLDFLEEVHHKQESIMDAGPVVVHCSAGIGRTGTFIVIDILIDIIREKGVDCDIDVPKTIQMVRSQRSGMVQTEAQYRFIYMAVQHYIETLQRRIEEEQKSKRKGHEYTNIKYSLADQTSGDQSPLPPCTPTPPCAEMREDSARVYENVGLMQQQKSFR

target: SHP2 (Homo sapiens (Human), UniProt Q06124); assay: SHP2 Allosteric Inhibition Assay (DiFMUP prompt fluorescence); format: biochemical; details: not given

| SMILES | IC50 [nM] |
| --- | --- |
| CC1(N)CCN(c2ncc(-c3cc(O)cc(Cl)c3Cl)c(N)n2)CC1 [Example 6, 3-(4-amino-2-(4-amino-4-methylpiperidin-1-yl)pyrimidin-5-yl)-4,5-dichlorophenol] | 225 |
| CC1(N)CCN(c2nc(N)c(-c3cccc(Cl)c3Cl)nc2Br)CC1 [Example 22, 6-(4-amino-4-methylpiperidin-1-yl)-5-bromo-3-(2,3-dichlorophenyl)pyrazin-2-amine] | 169 |
| CC1(N)CCN(c2nc(N)c(-c3cccc(Cl)c3Cl)nc2Cl)CC1 [Example 23, 6-(4-amino-4-methylpiperidin-1-yl)-5-chloro-3-(2,3-dichlorophenyl)pyrazin-2-amine] | 392 |
| Cc1nc(-c2cccc(Cl)c2Cl)c(N)nc1N1CCC(C)(N)CC1 [Example 24, 6-(4-amino-4-methylpiperidin-1-yl)-3-(2,3-dichlorophenyl)-5-methylpyrazin-2-amine] | 222 |
| CC1(N)CCN(c2nc(N)c(-c3cccc(Cl)c3Cl)nc2C#N)CC1 [Example 25, 5-amino-3-(4-amino-4-methylpiperidin-1-yl)-6-(2,3-dichlorophenyl)pyrazine-2-carbonitrile] | 315 |
| CC1(N)CCN(c2nc(N)c(-c3cccc(Cl)c3Cl)nc2C(N)=O)CC1 [Example 26, 5-amino-3-(4-amino-4-methylpiperidin-1-yl)-6-(2,3-dichlorophenyl)pyrazine-2-carboxamide] | 271 |
| C[C@@H]1CN(c2cnc(-c3cccc(Cl)c3Cl)c(N)n2)C[C@H](C)N1 [Example 27, 3-(2,3-dichlorophenyl)-6-((3S,5R)-3,5-dimethylpiperazin-1-yl)pyrazin-2-amine] | 570 |
| CC1(N)CCN(c2nnc(-c3cccc(Cl)c3Cl)c(N)n2)CC1 [Example 30, 3-(4-amino-4-methylpiperidin-1-yl)-6-(2,3-dichlorophenyl)-1,2,4-triazin-5-amine] | 194 |

same assay, conditions: 0.5 nM SHP2 activated with 0.5 μM peptide IRS1_pY1172(dPEG8)pY1222, substrate DiFMUP; read-out: IC50

| IC50 [nM] | SMILES |
| --- | --- |
| 950 | CC1(N)CCN(c2ncc(-c3ccc(Cl)s3)c(N)n2)CC1 [Example 3] |
| 974 | Cc1ccc(-c2cnc(N3CCC(C)(N)CC3)nc2N)s1 [Example 4] |
| 2580 | CC1(N)CCN(c2cnc(C3=CCCCC3)c(N)n2)CC1 [Example 29] |

same assay, conditions: read-out: IC50

| SMILES | IC50 [nM] |
| --- | --- |
| Cc1cccc(-c2cnc(N3CCC(C)(N)CC3)nc2N)c1Cl [Example 2] | 858 |
| COc1cc(Cl)c(Cl)c(-c2cnc(N3CCC(C)(N)CC3)nc2N)c1 [Example 5] | 2860 |
| NCC1CCN(c2cnc(-c3cccc(Cl)c3Cl)c(N)n2)CC1 [Example 9] | 358 |
| NC[C@H]1CCN(c2cnc(-c3cccc(Cl)c3Cl)c(N)n2)C1 [Example 14] | 68 |

same assay, conditions: read-out: SHP2 IC50

| SMILES | IC50 [nM] |
| --- | --- |
| CC1(N)CCN(c2cnc(-c3cccc(Cl)c3Cl)cn2)CC1 | 5700 |
